Our source for the CC50 values is patent publication US8354433B2, “Anti-inflammatory agents as virostatic compounds” (4SC AG, priority 2009, dated 2013).

A short description of series [1]: in vitro. Conditions: African green monkey.
Series [2] is described as follows: in vitro. Conditions: African green monkey. The source holds these as a separate data set.

Consider `O=C(O)C1=C(C(=O)Nc2ccc(OCc3c(F)cccc3Cl)c(Cl)c2)CCC1` [Compound 3, 2-[3-Chloro-4-(2-chloro-6-fluoro-benzyloxy)-phenylcarbamoyl]-cyclopent-1-enecarboxylic acid], for which, in series [1], the CC50 is 237 nM.

In turn, `O=C(O)C1=C(C(=O)Nc2c(F)c(F)c(-c3cccc(OC(F)(F)F)c3)c(F)c2F)CCC1` [Compound 4, 2-(2,3,5,6-Tetrafluoro-3′-trifluoromethoxy-biphenyl-4-ylcarbamoyl)-cyclopent-1-enecarboxylic acid] registered a CC50 in series [1] of 206 nM.

Turning to `O=C(Nc1c(F)cc(-c2cccc(OC(F)(F)F)c2)cc1F)c1ccsc1C(=O)O` [Compound 17, 3-(3,5-difluoro-3′-(trifluoromethoxy)biphenyl-4-ylcarbamoyl)thiophene-2-carboxylic acid], the CC50 in series [2] turned out to be 1460 nM.
